Assay results: patent US20240124551A1 (REPLAY, published 2024)

Experiments:
SYNC4-1 [1] = experiment: thermal stability assay (SYPRO orange melt), 5 µM, FIG. 13
SYNC4-1 [2] = experiment: thermal stability assay (SYPRO orange melt), 5 µM; SYNC4-1 alone Tm 42.6 and 57.2 ° C.

B1: KIR2DL2 (receptor, UniProt P43627 22-245, looked up)
chain: HEGVHRKPSLLAHPGRLVKSEETVILQCWSDVRFEHFLLHREGKFKDTLHLIGEHHDGVSKANFSIGPMMQDLAGTYRCYGSVTHSPYQLSAPSDPLDIVITGLYEKPSLSAQPGPTVLAGESVTLSCSSRSSYDMYHLSREGEAHECRFSAGPKVNGTFQADFPLGPATHGGTYRCFGSFRDSPYEWSNSSDPLLVSVIGNPSNSWPSPTEPSSKTGNPRHLH
Tm of the combination (shoulder) (SYNC4-1 [1]): 57.6 ° C.
Tm of the combination (single maximum) (SYNC4-1 [1]): 58.8 ° C.
Tm of the combination (first maximum) (SYNC4-1 [2]): 54.8 ° C.
Tm of the combination (second maximum) (SYNC4-1 [2]): 57.4 ° C.
